PubChem BioAssay AID686964 (The Scripps Research Institute Molecular Screening Center, 2013)
The entries are a selection whose mix differs from that of the whole data set. Some tests of the compounds listed are not included; inactive here does not mean inactive elsewhere. The source made the active and inactive calls. Cut-off read from the data, not from the text of the source: active = inhibition above about 13%; inactive = the rest.

Sequences of proteins named here, by UniProt entry; tags and fusion partners are left off.
UniProt Q9UBB5, whole entry: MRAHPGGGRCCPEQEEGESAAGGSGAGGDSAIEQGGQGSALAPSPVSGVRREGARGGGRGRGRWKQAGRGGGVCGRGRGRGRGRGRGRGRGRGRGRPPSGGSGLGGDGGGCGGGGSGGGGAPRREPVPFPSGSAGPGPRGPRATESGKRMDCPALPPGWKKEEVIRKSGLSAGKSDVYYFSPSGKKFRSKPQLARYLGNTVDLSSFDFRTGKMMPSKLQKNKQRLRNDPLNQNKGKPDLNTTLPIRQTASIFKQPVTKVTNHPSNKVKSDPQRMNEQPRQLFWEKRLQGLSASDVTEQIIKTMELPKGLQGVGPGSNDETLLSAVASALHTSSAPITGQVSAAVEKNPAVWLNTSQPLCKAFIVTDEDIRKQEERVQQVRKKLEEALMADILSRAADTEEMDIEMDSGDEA

Each molecule was assayed against Methyl-CpG-binding domain protein 2 (Homo sapiens) (UniProt Q9UBB5) (assay: MBD2-DBD methyl-oligonucleotide interaction blockers – biochemical, TR-FRET, DNA-binding domain, human, primary screen (AID 686964)). Settings: MBD2 binding to methylated oligonucleotide, at 4.4 µM, stronger effect = higher value.

Row | Compound | inhibition
1 | COc1ccc(Cl)cc1C(=O)NCC1(N(C)C)CCCCC1 | inactive: 2.33%
2 | COc1cccc(C(=O)NCC2(N3CCCCC3)CCCCC2)c1 | inactive: -0.85%
3 | O=C(NCC1(N2CCCCC2)CCCCC1)c1cccc(Cl)c1 | inactive: -0.43%
4 | CN(C)C1(CNC(=O)c2ccc(Br)cc2)CCCCC1 | inactive: 0.83%
5 | COc1cc(C(=O)NCC2(N(C)C)CCCCC2)c([N+](=O)[O-])cc1OC | inactive: -1.16%
6 | COc1ccc(Br)c(C(=O)NCC2(N3CCCCC3)CCCCC2)c1 | inactive: 4.76%
7 | C=C(C)C#CC(O)(C(=O)OC1CCN(C)CC1)c1ccccc1 (stereo unspecified) | inactive: 6.03%
8 | CN(C)c1cccc(C(=O)NCC2(N(C)C)CCCCC2)c1 | inactive: -3.05%
9 | O=C(OCCN1CCCC1)C(O)(c1ccccc1)c1ccccc1 | inactive: 0.91%
10 | CC(C)Oc1ccc(C(=O)NCC2(N(C)C)CCCCC2)cc1 | inactive: 2.9%
11 | O=C(OC1CN2CCC1CC2)C(CO)(c1ccccc1)c1ccccc1 (stereo unspecified) | inactive: -5.34%
12 | CC(C)N1C(=O)CC2(CCN(CCOC(=O)C(O)(c3ccccc3)c3ccccc3)CC2)C1=O | inactive: 2.78%
13 | COc1cc(SC)ccc1C(=O)NCC1(N(C)C)CCCCC1 | inactive: 1.69%
14 | CCN(CC)CC(C)C(C)OC(=O)C(O)(c1ccccc1)c1ccccc1 (stereo unspecified) | inactive: 3.2%
15 | Cc1ccc(C(=O)NCC2(N3CCCCC3)CCCCC2)cc1 | inactive: 3.82%
16 | O=C(NCC1(N2CCCCC2)CCCCC1)c1cc([N+](=O)[O-])ccc1Cl | inactive: -0.21%
17 | CN1[C@@H]2CC[C@H]1CC(OC(=O)C(O)(c1ccccc1)c1ccccc1)C2 (stereo partly specified) | inactive: 1.85%
18 | O=C(NCC1(N2CCCCC2)CCCCC1)c1cc(F)c(F)cc1Cl | inactive: 0.36%
19 | C=CCN1CCN(CCOC(=O)C(O)(c2ccccc2)c2ccccc2)CC1 | inactive: -5.4%
20 | O=C(NCC1(N2CCCCC2)CCCCC1)c1cccc(Br)c1 | inactive: 3.86%
21 | Cc1cc(C(=O)NCC2(N3CCCCC3)CCCCC2)ccc1[N+](=O)[O-] | inactive: 0.94%
22 | CCN1CCCC(OC(=O)C2(O)c3ccccc3C=Cc3ccccc32)C1 (stereo unspecified) | inactive: 0.38%
23 | COc1ccc(C(=O)NCC2(N(C)C)CCCCC2)cc1 | inactive: -2.96%
24 | CN(C)C1CCCC1OC(=O)C(O)(c1ccccc1)c1ccccc1 (stereo unspecified) | inactive: 3.43%
25 | CN(C)c1ccc(C(=O)NCC2(N(C)C)CCCCC2)cc1 | inactive: 4.9%
26 | Cc1ccccc1C(=O)NCC1(N2CCCCC2)CCCCC1 | inactive: -1.94%
